These results are taken from patent publication US9435811B2, “Inducer of chondrocyte proliferation and differentiation” (ORIENTAL YEAST CO., LTD, priority 2008, dated 2016).

The assay has as its system human mesenchymal stem cells. As to the kind of experiment: Three-dimensional culture using human mesenchymal stem cells. The class given is cell-based. The settings on record: 21 days; 40 μM peptide D, 10 ng/ml TGF-β3, 100 ng/ml BMP-2. As to the method: Chondrocytes are three-dimensionally cultured induce […]. Three dimensional culture system relatively reflected the natural conditions. Human mesenchymal stem cells were seeded at 2.5×10^5 cells in 15-ml tubes (TPP) and the cells were collected by centrifuged at 1,000 rpm and room temperature for 4 minutes. The supernatant was removed and the medium was replaced with 0.5 ml chondrocyte differentiation induction medium (Lonza) with 10 ng/ml TGF-β3 (R&D). The medium was replaced with fresh medium every 3 or 4 days. Simultaneously, peptide D was added at 50 μM and at 150 μM (i.e., a low-dose peptide D group and a high-dose peptide D group). After 14 days, the cells were fixed in 4% PFA (Wako), photographed under a microscope (FIG. 8). A pellet was embedded in paraffin, and the sample slide was prepared, followed by alcian blue staining and safranin 0 staining (FIG. 9).
Subsequently, the synergistic effects of peptide D and TGF-β3 on cartilage formation were examined. 2.5×10^5 human mesenchymal stem cells were cultured in the presence of 40 μM peptide D and 10 ng/ml TGF-β3 with cartilage differentiation induction medium for 21 days. After the pellets were fixed in 4% PFA, the pellet was photographed under a microscope (FIG. 10). After the pellet had been embedded in paraffin, the sample slide was prepared and stained with alcian blue and safranin 0 (FIG. 11). […]

B1: BMP-2: BMP-2 (R&D), protein belonging to the TGF-β superfamily (protein, UniProt P12643 283-396, looked up)
Bone morphogenetic protein 2: QAKHKQRKRLKSSCKRHPLYVDFSDVGWNDWIVAPPGYHAFYCHGECPFPLADHLNSTNHAIVQTLVNSVNSKIPKACCVPTELSAISMLYLDENEKVVLKNYQDMVVEGCGCR
Regarding B1, the pellet size entry is “did not change”.
